Reference: publication PMC11726634, “Probing the Histamine H1 Receptor Binding Site to Explore Ligand Binding Kinetics” (Journal of Medicinal Chemistry, 2024)

Protein sequences, listed by entry. Tags and fused reporters are not part of them. Lines headed by an entry give the natural chain unless they say otherwise; changes in a name come on top.
UniProt P35367, whole entry: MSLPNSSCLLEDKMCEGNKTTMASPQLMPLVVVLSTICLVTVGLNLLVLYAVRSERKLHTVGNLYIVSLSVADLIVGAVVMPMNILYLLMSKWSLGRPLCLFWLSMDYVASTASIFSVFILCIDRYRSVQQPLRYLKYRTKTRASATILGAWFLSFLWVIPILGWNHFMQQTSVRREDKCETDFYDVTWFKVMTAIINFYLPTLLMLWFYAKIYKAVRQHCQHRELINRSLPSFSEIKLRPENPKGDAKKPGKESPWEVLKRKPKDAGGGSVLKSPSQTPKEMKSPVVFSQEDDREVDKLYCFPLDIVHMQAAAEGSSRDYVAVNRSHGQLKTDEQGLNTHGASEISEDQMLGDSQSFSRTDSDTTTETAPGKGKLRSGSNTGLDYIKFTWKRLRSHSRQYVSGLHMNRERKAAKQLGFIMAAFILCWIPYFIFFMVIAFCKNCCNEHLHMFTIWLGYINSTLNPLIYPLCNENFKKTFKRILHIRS

Molecular target: human H1R (Homo sapiens, UniProt P35367)
Assay: [3H]-mepyramine competition binding (radioligand displacement, 4 h) on HEK293T cell homogenates
Design: expressed in transfected cells; host or cells: HEK293T cells, transient transfection with pcDEF3, used as cell homogenate
Conditions: [3H]mepyramine displacement curves after 4 h incubation, HEK293T cell homogenate expressing H1R, 25 °C; mean and SEM, N ≥ 3
Description: Protein content of membrane homogenates was determined using a BCA protein assay. […] Membrane preparation, termination of the binding reaction and quantifying radioactivity as described here, were performed for all binding experiments.Total binding and nonspecific binding (i.e., in the presence of mianserin) was analyzed by nonlinear regression using eqs 1 (nonspecific binding) and 2 (total binding).
These values were converted to Ki values using the Cheng–Prusoff equation.[24]

pKi: 8.6 ± 0.1
Structure (SMILES): CN1CCC(Oc2ccccc2Cc2ccccc2)CC1 [compound 1, 4-(2-benzylphenoxy)-1-methylpiperidine]
